## Yeast mating assay B: variants of the scFv Ab-14

Antigen: PDVDLGDISGINAS, a 14-residue peptide of the SARS-CoV-2 spike HR2 region.

Parent scFv Ab-14: VH joined to VL by a 15-residue (Gly4Ser)3 linker. Changes lie in the heavy chain CDRs alone.
VH: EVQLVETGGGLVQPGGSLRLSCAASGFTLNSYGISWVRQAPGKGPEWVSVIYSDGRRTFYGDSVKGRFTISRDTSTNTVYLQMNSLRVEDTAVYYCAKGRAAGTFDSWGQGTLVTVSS
VL: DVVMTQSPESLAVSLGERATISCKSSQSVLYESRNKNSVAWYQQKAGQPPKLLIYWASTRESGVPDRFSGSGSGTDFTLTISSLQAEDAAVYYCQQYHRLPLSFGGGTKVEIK

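This is the validation round: designs drawn from the data on random variants, tested in the same kind of assay. Several design methods are mixed in this list. The scFvs were displayed on barcoded MATa yeast, the peptide on MATalpha yeast. The frequency of each diploid, read from paired DNA barcodes, reflects how well the two displayed proteins bind. Read counts were normalised to the haploid input and turned into Kd by a linear fit to BCL2-family pairs of known affinity, for each replicate. Mating was done six times.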

The parent's heavy chain CDRs are GFTLNSYGIS, VIYSDGRRTFYGDSVK, GRAAGTFDS; each variant's own CDRs replace them letter for letter. Values are apparent Kd, the geometric mean of the replicates that gave a signal; lower means stronger binding. An entry "not detected" has no value in the source: the pair was not observed among the diploids in any replicate. This suggests poor binding but is not conclusive. Nonspecific signal, from three strains lacking the peptide, appeared in 1% of pairings of all heavy chain designs, centred on 120 nM (5% of these signals below 7.0 nM); values are not corrected for it. Also given: how often the same scFv was detected with the empty control strains. Of ten entries with the parent sequence, four were seen in most replicates (averages 2.2 nM to 240 nM), three in one and three in none, so single entries are noisy. Some sequences occur more than once in the pool; their replicates are pooled. The authors' rule: three or more of the six replicates give a measured affinity, fewer mean a poor binder. Values of this round are not directly comparable with the first-round values of the same sequences.

CDR-H1,CDR-H2,CDR-H3,apparent Kd,seen in,empty controls
GFDLNEYGIS,VIYADGRRTFYTDSVK,GEAAGTFDS,240 pM,6 of 6,0 of 18
GFSLNSYGIS,VIYSDGRRTFYGDSVK,GMAAGTFDK,4.7 nM,6 of 6,0 of 18
GFNLDEYGIS,VIYADGRRTFYADSVK,GENAGTFDT,290 pM,6 of 6,0 of 18
GFTLNEYGIS,VIYSDGRRTFYGDSVK,GRAAGTGDS,not detected,0 of 6,0 of 18
GQDLESYGIS,VIYADGRRKAYHDSVK,GTNGGVSFV,not detected,0 of 6,0 of 18
GFDLDEYGIS,VIYADGKRTFYQDSVK,GQNAGTFDQ,36 pM,5 of 6,0 of 18
GFDLNSYGIS,VIYSDGRRTFYQDSVK,GREAGTFDD,2.2 nM,6 of 6,1 of 18
GFDLNSYGIS,VIYSDGRRTFYGDSVK,GRAAWTFDE,not detected,0 of 6,1 of 18
GFDLNEYGIS,VIYADGRRTFYTDSVK,GNNAGTFIS,23 nM,6 of 6,0 of 18
GFDLNEYGIS,VIYADGMRTAYADSVK,GEVAGTFVV,1.5 nM,6 of 6,0 of 18
GFDINEYGIS,VIYADGNRTMYQDQVK,GENGGSFVL,not detected,0 of 6,1 of 18
GFTLNSYGIS,VIYSDGQRTFYGDSVK,GAAAGTFDS,120 nM,6 of 6,1 of 18
GFSLDEYGIS,VIYADGIRVSYTDQVK,GQTPSLNII,not detected,0 of 6,0 of 18
GFDLNEYGIS,VIYADGKRTAYADSVK,GENAGTFDI,110 pM,6 of 6,0 of 18
GFTLDSYGIS,VIYADGRRTFYGDSVK,GRAAGTFNS,3.7 nM,6 of 6,0 of 18
GFDLNSYGIS,VIYSDGRRTEYGDSVR,GRAAGTFDS,3.3 nM,2 of 6,0 of 18
GVNLDEYGIS,VIYADGVRSHYAESVK,GMHGTFGVV,not detected,0 of 6,0 of 18
GYTYNQYGIS,VIYSDGRRTEYSDSVK,GRAAGFFDS,not detected,0 of 6,0 of 18
GFELNKYGIS,VIYSDGRRTFYGDQVK,GRTAGTFDS,4.2 nM,5 of 6,0 of 18
GFTLESYGIS,VIYSDGRRQFYGDSVK,GRWALTFDS,not detected,0 of 6,0 of 18
GFWLNEYGIS,VIYSDGRRTFYADSVK,GRAAGTFDS,1.9 nM,6 of 6,0 of 18
GFDLSEYGIS,VIYADGMRTFYTDSVK,GEVAGTFDV,380 pM,6 of 6,1 of 18
GFTLNEYGIS,VIYSDGRRTFYADSVK,GRVAGTFDS,230 pM,12 of 12,0 of 36
GFQLNDYGIS,VIYSDGRRTFYGDSVK,GRTAGTFIS,not detected,0 of 6,0 of 18
GFVLNSYGIS,VIYSDGRRTFYGDDVK,GQAYGTFDS,not detected,0 of 6,0 of 18
GFTLNSYGIS,VIYSDGRRTFYGDSVK,GREAGTNDS,not detected,0 of 6,0 of 18
GFDLNEYGIS,VIYADGQRTVYADSVK,GNNAGTFDV,380 pM,6 of 6,1 of 18
GFDLNSYGIS,VIYSDGRRTFYGDSVK,GQAAGSFDS,170 nM,2 of 6,0 of 18
GFTLNSYGIP,VIYADGRRTFYGDSVK,GRAAGTNKS,not detected,0 of 6,2 of 18
GFNLDEYGIS,VIYADGNRTQYLENVK,GTNWGAVDL,not detected,0 of 6,1 of 18
GFSLNEYGIS,VIYSDGRRTFYKDSVK,GEAAGTFDS,5.0 nM,6 of 6,0 of 18
GDDIDEYGIS,VIYADGHRSQYSEQVK,GNNAGTLDE,not detected,0 of 6,0 of 18
GFDLDEYGIS,VIYADGKRTAYVDSVK,GENAGTFDV,490 pM,6 of 6,0 of 18
GFNLNSYGRS,VIYSDGRRTFYGDSVK,GRAAGLFDS,not detected,0 of 6,0 of 18
GFDLNMYGIS,VIYSDGRRTFYGDSVK,GRTAGTFDS,4.8 nM,6 of 6,1 of 18
GFNLNSYGIS,VIYSDGRRTFYHDSVK,GEAAGTFDS,2.9 nM,6 of 6,1 of 18
GATLDSYGIS,VGYSDGRRTFYGGSVK,GSAALTFDS,not detected,0 of 6,0 of 18
GFDINEYGIS,VIYADGFRTAYVQQVK,GQHLGSVEV,not detected,0 of 6,0 of 18
GFDLNEYGIS,VIYADGKRTAYADSVK,GNVAGTFDA,310 pM,6 of 6,0 of 18
GFTLNSYGIS,VIYADGRRTFYGDSVK,GRLAGTFWI,not detected,0 of 6,0 of 18
GFTLNEYGIS,VIYSDGRRTFYGDSVK,GRYAGSFDS,not detected,0 of 6,0 of 18
GFTLNQYGIS,VIYADGRRTFYGDSVK,GRAAGTFTS,46 nM,2 of 6,0 of 18
GFDLDEYGIS,VIYADGSRTAYTDSVK,GENAGTFDV,6.2 nM,6 of 6,0 of 18
GFTLNSYGIS,VIYSDGHRTFYGDSVS,GNAAGTFVS,not detected,0 of 6,0 of 18
GFTLNSYGIS,VIYSDGRRTFYGDNVK,GQTAGTFDL,not detected,0 of 6,0 of 18
GFTLNNYGIS,VIYADGRRTFYGDSVK,GRAAGTLDS,4.1 nM,6 of 6,0 of 18
GFTLNEYGIS,VIYSDGRRTFYTDNVK,GRFAGTFDS,1.5 nM,6 of 6,1 of 18
GFDLEEYGIS,VIYADGRRTFYSDSVK,GEQAGTFDV,160 pM,6 of 6,0 of 18
GETLNDYGIS,VIYSDGRRTFMGDSVK,GRAAGCFDS,not detected,0 of 6,1 of 18
GFTLDSGGIA,VTYSDGWRTFYGDSVK,GRGAGTALS,not detected,0 of 6,0 of 18
GNTLDEYGIS,VIYADGVRMAYINKFK,GMMTGTFDQ,not detected,0 of 6,0 of 18
GFDIEEFGIS,VIYADGKRSAYSNSVK,GLMAGTMGY,96 nM,5 of 6,0 of 18
GFTLNSYGIS,VIYSDGRRTFYSDSVK,GHAGGTFDS,93 nM,6 of 6,0 of 18
GFMLNEYGIS,VIYSDGRRTFYHDSVK,GRAAGTFDS,2.1 nM,6 of 6,0 of 18
GFTLNSYGIS,VIYSDGRRTFYTDSVK,GREAGTFDV,1.3 nM,6 of 6,0 of 18
GFTLNSYGIS,VIYSDGRRTFYGDSVL,GQAAGTFDS,15 nM,3 of 6,1 of 18
GFDLNEYGIS,VIYADGRRTFYTDSVK,GNIAGTFLV,740 pM,6 of 6,0 of 18
GFELNDYGIS,VIYSDGRRTEYIDSVK,GRAAGTFDS,5.8 nM,4 of 6,0 of 18
GFDLNEYGIS,VIYADGRRTFYADNVK,GEVAGTFDL,270 pM,6 of 6,0 of 18
GFDLNEYGIS,VIYADGRRTFYQDSVK,GQNAGTFDQ,290 pM,6 of 6,0 of 18

Repeated from above, the 7 best binders with a signal in all replicates:

CDR-H1,CDR-H2,CDR-H3,apparent Kd,seen in,empty controls
GFDLNEYGIS,VIYADGKRTAYADSVK,GENAGTFDI,110 pM,6 of 6,0 of 18
GFDLEEYGIS,VIYADGRRTFYSDSVK,GEQAGTFDV,160 pM,6 of 6,0 of 18
GFTLNEYGIS,VIYSDGRRTFYADSVK,GRVAGTFDS,230 pM,12 of 12,0 of 36
GFDLNEYGIS,VIYADGRRTFYTDSVK,GEAAGTFDS,240 pM,6 of 6,0 of 18
GFDLNEYGIS,VIYADGRRTFYADNVK,GEVAGTFDL,270 pM,6 of 6,0 of 18
GFDLNEYGIS,VIYADGRRTFYQDSVK,GQNAGTFDQ,290 pM,6 of 6,0 of 18
GFNLDEYGIS,VIYADGRRTFYADSVK,GENAGTFDT,290 pM,6 of 6,0 of 18

From the AlphaSeq antibody data of Li et al. 2023 (doi:10.1038/s41467-023-39022-2), copy in the FLAb collection.